The list shows a part of the results, in another mix than the full data. Records with an inconclusive call do not appear. Some salts or complexes appear as unconnected parts, following the source record. Activity calls are given as the source filed them. No stated cut-off is given here; in the data, active means CPE inhibition above about 20% (passing the limit was not always enough); inconclusive means no clear call, values can overlap the other calls; tested in BHK-21 cells.

The nature of this assay: inhibitors of DENV2 cytopathic effect, primary screen, cell-based, plate reader, single concentration (AID 651640).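 Further: 0% = median of neutral control wells and 100% = median of positive control wells.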 Conditions: DENV2-infected cells, cytopathic effect rescue, at 9.99 µM, active compounds read high. In general terms: Cytopathic effects are the visible damage that an infection or toxin causes in cultured cells.
For `O=[N+]([O-])c1cc([N+](=O)[O-])c(-c2cnn(-c3ccccc3)c2)c([N+](=O)[O-])c1`, the CPE inhibition was inactive: -6.37%. As to `CN(Cc1cccnc1)C(=O)COc1ccc(Cl)c(Cl)c1.O=[N+]([O-])c1cc([N+](=O)[O-])c(O)c([N+](=O)[O-])c1`, the CPE inhibition was inactive: -7.39%. The value for `COc1ccc(-c2ccccn2)cc1.O=[N+]([O-])c1cc([N+](=O)[O-])c(O)c([N+](=O)[O-])c1` was inactive: 3.41%. Take `CCCOc1ccc(NP(C)(=O)Oc2ccc(Cl)cc2)cc1` (stereo not given): the CPE inhibition was inactive: 1.52%. To `CN1CCCCC1COC(=O)C1(O)c2ccccc2CCc2ccccc21` (stereo not given) belongs inactive: 2.42%; to `CCOC(=O)C(CC)C1=NC(C)(C)Cc2ccccc21.O=[N+]([O-])c1cc([N+](=O)[O-])c(O)c([N+](=O)[O-])c1` (stereo not given), inactive: -3.75%. Take `O=[N+]([O-])c1cc([N+](=O)[O-])c(Nc2nnnn2CCO)c([N+](=O)[O-])c1`: the CPE inhibition was inactive: 3.41%. With `O=C(O)c1cccc(Nc2c([N+](=O)[O-])cc([N+](=O)[O-])cc2[N+](=O)[O-])c1`, the CPE inhibition is inactive: 2.61%. For the compound `CP(=O)(Nc1cccc(Br)c1)Oc1ccccc1` (stereo not given), the CPE inhibition is inactive: 4.12%. In the case of `CCOC(=O)c1ccc(NP(C)(=O)Oc2cc(C)cc(C)c2)cc1` (stereo not given), the CPE inhibition was inactive: -7.71%. With `Cc1cc(C)cc(OP(C)(=O)Nc2ccc(C)cc2C)c1` (stereo not given), the CPE inhibition is inactive: 11.3%. Take `COc1ccccc1OP(C)(=O)Nc1cccc(Br)c1` (stereo not given): the CPE inhibition was inactive: 2.22%. Regarding `COc1ccccc1-c1ccccn1.O=[N+]([O-])c1cc([N+](=O)[O-])c(O)c([N+](=O)[O-])c1`, the CPE inhibition is inactive: -5.71%.

In the case of `CCN(CC)CCCOC(=O)C(O)(c1ccccc1)c1ccccc1`, the CPE inhibition was inactive: 3.22%. Turning to `Cc1cc(C)cc(OP(C)(N)=O)c1` (stereo not given), the CPE inhibition is inactive: 9.29%.

With `COc1ccccc1OP(C)(=O)Nc1cc(Cl)ccc1C` (stereo not given), the CPE inhibition was inactive: 4.15%. `O=[N+]([O-])c1ccc2c(c1)C=Nc1ccccc1O2`: the CPE inhibition was inactive: -3.1%. Turning to `Cc1cccc(C)c1OP(C)(N)=O` (stereo not given), the CPE inhibition is inactive: 11.5%. With `CC(C)(C)c1ccc(OP(C)(=O)Nc2ccc(SC(F)(F)F)cc2)cc1` (stereo not given), the CPE inhibition is inactive: -17%. As for `O=[N+]([O-])c1cc([N+](=O)[O-])c(Nc2cccnc2)c([N+](=O)[O-])c1`, the CPE inhibition was inactive: -3.68%. With `COc1ccccc1OP(C)(=O)Nc1ccccc1` (stereo not given), the CPE inhibition is inactive: 0.102%. In the case of `CP(=O)(Nc1ccccn1)Oc1ccc(Cl)cc1` (stereo not given), the CPE inhibition was inactive: -1.71%. Regarding `O=[N+]([O-])c1cc([N+](=O)[O-])c(O)c([N+](=O)[O-])c1.c1ccc(Oc2ccncc2)cc1`, the CPE inhibition was inactive: -11.3%.

As for `CP(=O)(NC(=O)Nc1ccccc1)Oc1ccccc1` (stereo not given), the CPE inhibition is inactive: -3.15%. As to `CCc1ccc(OP(C)(=O)N2CCN(c3ccc([N+](=O)[O-])cc3)CC2)cc1` (stereo not given), the CPE inhibition was inactive: -3.39%. On to `CN(C)C(=O)c1c([N+](=O)[O-])cc([N+](=O)[O-])cc1[N+](=O)[O-]`, for which the CPE inhibition is inactive: 0.316%. On to `COc1ccccc1OP(C)(=O)Nc1ccccc1Br` (stereo not given), for which the CPE inhibition was inactive: -0.856%. For `O=C(OCCCN1CCCC1)C(O)(c1ccccc1)C1CCCCC1` (stereo not given), the CPE inhibition was inactive: 0.451%. As to `CCc1ccc(OP(C)(=O)Nc2cccnc2)cc1` (stereo not given), the CPE inhibition is inactive: 13.8%.

Take `CCOC(=O)c1ccc(NP(C)(=O)Oc2ccc(Cl)cc2)cc1` (stereo not given): the CPE inhibition was active: 42.7%.

`Nc1ccc2c(ccc3cccnc32)n1.O=[N+]([O-])c1cc([N+](=O)[O-])c(O)c([N+](=O)[O-])c1`: the CPE inhibition is inactive: 6.31%. In the case of `CCCCCCCCCCCCCCCC1C[N+](C)(C)CCOP(C)(=O)O1` (stereo not given), the CPE inhibition was inactive: 9.86%. `CP(=O)(Nc1ccc(Cl)cc1Cl)Oc1ccccc1` (stereo not given): the CPE inhibition was inactive: -1.53%. Consider `CP(=O)(OCCOc1ccccc1)OCCOc1ccccc1`, for which the CPE inhibition is inactive: 1.5%. Consider `O=C1C(O)=C([N+](=O)[O-])C(=O)C(O)=C1[N+](=O)[O-]`, for which the CPE inhibition was inactive: -3.75%. For the compound `O=[N+]([O-])c1cc([N+](=O)[O-])c(Nc2ccccn2)c([N+](=O)[O-])c1`, the CPE inhibition is inactive: 3.54%. Regarding `COc1ccccc1OP(C)(=O)Nc1ccc(Br)cc1` (stereo not given), the CPE inhibition was inactive: 0.615%.

`COc1ccc2c(c1O)-c1c(O)c(OC)cc3c1[C@H](C2)[N+](C)(C)CC3.O=[N+]([O-])c1cc([N+](=O)[O-])c([O-])c([N+](=O)[O-])c1[O-]`: the CPE inhibition is inactive: 2.46%.

With `O=C(OC1CN2CCC1CC2)c1ccc([N+](=O)[O-])cc1` (stereo not given), the CPE inhibition is inactive: 4.14%. `O=C(OCCN1CCN(CCOCc2ccccc2)CC1)C(O)(c1ccccc1)c1ccccc1`: the CPE inhibition is inactive: -8.59%. For the compound `CP(=O)(Nc1ccccc1F)Oc1ccccc1` (stereo not given), the CPE inhibition was inactive: -5.21%.

As for `CC(C)c1ccc(OP(C)(=O)Nc2ccc(SC(F)(F)F)cc2)cc1` (stereo not given), the CPE inhibition was inactive: 2.85%. Turning to `CCCCCOc1ccc(NP(C)(=O)Oc2ccc(Cl)cc2Cl)cc1` (stereo not given), the CPE inhibition was inactive: -6.66%. Consider `O=[N+]([O-])c1cc([N+](=O)[O-])c(OC2CCCCC2O)c([N+](=O)[O-])c1` (stereo not given), for which the CPE inhibition is inactive: -2.33%. With `Cc1c([N+](=O)[O-])cc([N+](=O)[O-])c(Br)c1[N+](=O)[O-]`, the CPE inhibition is inactive: 7.77%. For the compound `COc1ccc(OP(C)(=O)Nc2ccc(SC(F)(F)F)cc2)cc1` (stereo not given), the CPE inhibition was inactive: -6.46%.

Consider `CCN(CC)CCCNc1ccccc1[N+](=O)[O-].O=[N+]([O-])c1cc([N+](=O)[O-])c(O)c([N+](=O)[O-])c1`, for which the CPE inhibition was inactive: -5.3%.

For the compound `Cc1c(C(c2ccc3c(c2)OCO3)c2c(C)n(C)n(-c3ccccc3)c2=O)c(=O)n(-c2ccccc2)n1C.O=[N+]([O-])c1cc([N+](=O)[O-])c(O)c([N+](=O)[O-])c1`, the CPE inhibition is inactive: 3.28%. On to `O=[N+]([O-])c1ccc(OP2(=O)COCCO2)cc1` (stereo not given), for which the CPE inhibition was inactive: 0.78%. Regarding `O=[N+]([O-])c1cc([N+](=O)[O-])c(NCC2CCS(=O)(=O)C2)c([N+](=O)[O-])c1` (stereo not given), the CPE inhibition was inactive: -2%.

For the compound `Cc1cc(-c2cccc3ccccc23)c(C)cn1.O=[N+]([O-])c1cc([N+](=O)[O-])c(O)c([N+](=O)[O-])c1`, the CPE inhibition is inactive: -0.723%. Consider `COc1ccc(NP(C)(=O)Oc2ccccc2OC)cc1` (stereo not given), for which the CPE inhibition was inactive: 4.29%. Take `O=[N+]([O-])c1cc([N+](=O)[O-])c(C(F)(F)F)c([N+](=O)[O-])c1O`: the CPE inhibition was inactive: -3.16%. To `CCOP(=O)(CC)OCC` belongs inactive: -14.1%; to `CP(=O)(Nc1ccc(SC(F)(F)F)cc1)Oc1ccc(F)cc1` (stereo not given), inactive: -3.86%.
